Target: MEK1 (Homo sapiens (Human), UniProt Q02750)
Assay: Assay 1: biochemical MEK IC50 assay (Example 36, 33P-ATP filter-binding)
Settings: read-out: Assay 1: biochemical MEK IC50; Example 36, recombinant human MEK1, substrate ERK2 (K52R)
Experimental: The following procedure can be used to measure biochemical activity. MEK1 inhibitory activity of compounds were tested using the following procedure. […] Nat Biotechnol. 2011, 29(11), 1039-45.
• Reaction buffer: 20 mM Hepes (pH 7.5), 10 mM MgCl2, 1 mM EGTA, 0.02% Brij35, 0.02 mg/mL BSA, 0.1 mM Na3VO4, 2 mM DTT, 1% DMSO • Enzyme: MEK1, Invitrogen cat #PV3303 • N-terminal His-tagged recombinant human full length protein, expressed in insect cells. Activated in vitro by RAFT. MW=49.2 kDa, GenBank Accession No. NP_002746. • Substrate: 5 μM ERK2 (K52R), • Kinase-dead mutant, (GenBank Accession No. NM_0011949), aa2-358 with N-terminal His6 tag, MW=43.63 kDa, expressed in E. coli.
The substrate was prepared in freshly prepared Reaction Buffer. The kinase was delivered into the substrate solution and gently mixed. Test compounds were delivered in 100% DMSO into the kinase reaction mixture by Acoustic technology (Echo550; nanolitter range), and incubated for 20 min at room temperature. ^33P-ATP was delivered into the reaction mixture to initiate the reaction. The reaction mixture was incubated for 2 hours at room temperature. Kinase activity was detected by P81 filter-binding method.
Assay 1 is the biochemical MEK IC50 (nM) assay as described in Example 36. […]

Protein sequences, listed by entry. Tags and fused reporters are not part of them.
UniProt Q02750, whole entry: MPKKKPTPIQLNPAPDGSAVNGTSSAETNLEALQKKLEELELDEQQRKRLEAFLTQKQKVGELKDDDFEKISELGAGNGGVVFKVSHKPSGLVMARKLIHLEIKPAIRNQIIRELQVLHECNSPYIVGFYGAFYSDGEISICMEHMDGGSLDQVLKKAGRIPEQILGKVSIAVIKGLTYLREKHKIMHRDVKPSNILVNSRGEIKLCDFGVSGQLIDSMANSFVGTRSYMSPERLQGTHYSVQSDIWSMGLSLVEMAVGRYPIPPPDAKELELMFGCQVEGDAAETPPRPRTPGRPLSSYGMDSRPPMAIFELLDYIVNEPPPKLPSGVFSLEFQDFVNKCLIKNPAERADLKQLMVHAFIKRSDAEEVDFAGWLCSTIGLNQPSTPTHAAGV

Q: `CC(=O)c1sc(Nc2ccc(I)cc2F)c(C(=O)NOCC2COC2)c1C` was tested. Which IC50 did it give?
A: 1000 to 5000 nM
